Source: US20100086607A1, “Self-Assembled Biodegradable Nanoparticles for Medical and Biological Applications” (UNIVERSITY OF SOUTH CAROLINA, priority 2008, published 2010)

Type: physicochemical
Conditions: for relative absorbance (ELISA, active rhBMP-2): 100 μg/ml in PBS containing 5 wt % PLEOF
Description: The stability and activity of the released protein from the NPs was assessed with recombinant human bone morphogenetic protein-2 (rhBMP-2). To test the stability of the protein, 100 μg/ml rhBMP-2 was incubated in PBS containing 5 wt % PLEOF. Samples were removed with time and the enzymatically active concentration of rhBMP-2 was measured by enzyme-linked immunosorbent assay (ELISA) using a BMP Quantikine kit (R&D Systems, Minneapolis, Minn.). The relative absorbance measured after 1, 15, and 30 days was 100.0±7.5, 102.0±7.6, and 103.0±7.7, respectively. […] To test the activity of the released protein, rhBMP-2 was conjugated to PLAF-NHS NPs, and the suspension was dialyzed against PBS to remove the by-product, N-hydroxy succinimide. 1 mg rhBMP-2 conjugated NPs were placed in microcentrifuge tubes and incubated with 1 ml PBS. At each time point, the suspension was centrifuged, supernatant was removed, and the enzymatically active concentration of rhBMP-2 was measured by ELISA. As incubation time was increased from 1 to 5, 10, 21, 35, and 42 days, the percent of the released protein increased from 2.9±0.2 to 13.8±0.3, 26.1±0.9, 38.6±0.7, 45.8±0.9, and 48.7±0.7%, respectively, and the NPs had completely degraded after 42 days. After complete degradation of the NPs, about 50% of the released protein was enzymatically active.

rhBMP-2 conjugated NPs: rhBMP-2 conjugated to PLAF-NHS NPs
time to complete degradation of the NPs: 42 days | released protein enzymatically active (after complete degradation of the NPs): about 50% | percent of the released protein (active, ELISA) (incubation time 1 day in PBS): 2.9±0.2% | percent of the released protein (active, ELISA) (incubation time 5 days in PBS): 13.8±0.3% | percent of the released protein (active, ELISA) (incubation time 10 days in PBS): 26.1±0.9% | percent of the released protein (active, ELISA) (incubation time 21 days in PBS): 38.6±0.7% | percent of the released protein (active, ELISA) (incubation time 35 days in PBS): 45.8±0.9% | percent of the released protein (active, ELISA) (incubation time 42 days in PBS): 48.7±0.7%

recombinant human bone morphogenetic protein-2 [rhBMP-2]
stability of the protein in the assay: stable for 30 days | relative absorbance (ELISA, active rhBMP-2) (after 1 day): 100.0±7.5 | relative absorbance (ELISA, active rhBMP-2) (after 15 days): 102.0±7.6 | relative absorbance (ELISA, active rhBMP-2) (after 30 days): 103.0±7.7

Like-named read-outs stand apart in the source and are kept apart here.
